In ChEMBL document CHEMBL1123703, “Hydroxamic acid inhibitors of 5-lipoxygenase” (J Med Chem, 1987):

Biological target: T1, Polyunsaturated fatty acid 5-lipoxygenase (Rattus norvegicus, UniProt P12527)
T1 sequence (P12527 whole entry): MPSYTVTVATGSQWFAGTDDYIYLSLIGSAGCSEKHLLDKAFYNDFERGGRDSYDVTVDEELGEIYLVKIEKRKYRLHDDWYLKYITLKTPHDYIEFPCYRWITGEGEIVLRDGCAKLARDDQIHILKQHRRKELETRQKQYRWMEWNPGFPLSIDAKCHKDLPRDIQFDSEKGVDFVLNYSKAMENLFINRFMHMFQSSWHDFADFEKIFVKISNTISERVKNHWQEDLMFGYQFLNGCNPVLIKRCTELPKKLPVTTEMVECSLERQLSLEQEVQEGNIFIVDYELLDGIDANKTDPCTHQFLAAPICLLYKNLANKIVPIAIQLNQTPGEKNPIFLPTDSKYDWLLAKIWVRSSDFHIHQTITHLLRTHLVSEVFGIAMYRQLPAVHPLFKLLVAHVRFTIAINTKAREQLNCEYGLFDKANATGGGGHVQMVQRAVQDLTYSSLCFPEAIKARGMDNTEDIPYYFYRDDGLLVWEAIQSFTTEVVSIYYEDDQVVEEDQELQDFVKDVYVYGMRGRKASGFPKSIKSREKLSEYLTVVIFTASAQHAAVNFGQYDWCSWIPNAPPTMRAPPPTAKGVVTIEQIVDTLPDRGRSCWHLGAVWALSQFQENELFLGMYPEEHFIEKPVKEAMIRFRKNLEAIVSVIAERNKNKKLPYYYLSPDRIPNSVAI
Experiment: In vitro inhibitory activity against RBL-1 5-LO
Assay type: cell-based

IC50 | SMILES
950 nM | O=C(/C=C/c1ccc2ccccc2c1)NO
500 nM | CN(O)C(=O)/C(=C/c1ccc2ccccc2c1)c1ccccc1
